# Antibody variant affinities, Ab-14 heavy chain, assay B

Reference: Li et al. 2023, doi:10.1038/s41467-023-39022-2. File: FLAb, binding data.

Antigen: PDVDLGDISGINAS, a 14-residue peptide of the SARS-CoV-2 spike HR2 region.

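The parent was found by panning a naive human phage display library on the peptide. This is the validation round: designs drawn from the data on random variants, tested in the same kind of assay. Several design methods are mixed in this list. In AlphaSeq, yeast of one mating type display the scFv and yeast of the other type display the target. Mating (16 h, 30 °C) was followed by selection of diploids and sequencing of their barcodes. The ratio of observed to expected reads was calibrated, replicate by replicate, on BCL2-family standards whose Kd was known from biolayer interferometry. Mating was done six times.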

The variants keep the light chain, the linker and the frameworks of Ab-14 (scFv order VH, a 15-residue (Gly4Ser)3 linker, VL).
VH: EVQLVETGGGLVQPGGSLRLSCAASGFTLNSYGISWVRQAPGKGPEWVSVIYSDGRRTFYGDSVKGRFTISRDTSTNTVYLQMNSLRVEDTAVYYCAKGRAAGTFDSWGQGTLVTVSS
VL: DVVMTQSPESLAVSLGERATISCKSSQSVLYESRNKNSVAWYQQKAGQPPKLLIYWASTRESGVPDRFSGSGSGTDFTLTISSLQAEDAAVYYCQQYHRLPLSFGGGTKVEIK

Substitutions are numbered in sequence along the VH above, starting at 1 (not Kabat).
Variants here have at most six changes.
Numbers give log10(Kd / nM), so 0 is 1 nM and 3 is 1 µM. Smaller is tighter.
Replicates are averaged; those with no signal do not enter the mean.
An entry "ND" has no value in the source: the pair was not observed among the diploids in that replicate. This suggests poor binding but is not conclusive.
Order: sorted from the lowest average up, undetected variants last.

For T28E+G61Q+A101N, the assay gave -0.12, -0.89, -0.52, -0.38, -0.77, -0.37 (mean -0.51). For G26K+T28E+G61A+A101N, the assay gave -0.11, -0.12, -0.38, -0.39, -0.08, 0.57 (mean -0.09). Variant T28S+S31N+S53A+A101T showed 0.11, -0.15, -0.25, 0.05, 0.22, -0.08 (mean -0.02). For T28N+S31E+G61T+A101M, the assay gave -0.18, 0.10, -0.34, -0.51, 0.89, -0.02 (mean -0.01). With S31E+G61T+R100H+A101V the result was 0.38, 0.20, -0.29, -0.01, 0.00, 0.16 (mean 0.07).

For T28P+S31E+R100E, the assay gave 0.39, -0.47, -0.18, 0.11, 0.76, 0.15 (mean 0.13). For T28E+F59S+G61Q, the assay gave ND, -0.02, ND, -0.22, ND, 0.62 (mean 0.13). With T28S+G61A+A101N the result was 0.12, 0.13, 0.14, -0.57, 0.36, 0.25; 0.33, 0.44, 0.38, 0.26, 0.22, 0.38 (mean 0.20). Variant T28E+S31E+G61I+S107K gave 0.34, 0.39, -0.09, 0.45, 0.36, -0.01 (mean 0.24). Variant T28E+G61Q+R100T gave 0.05, 0.31, 0.24, 0.49, 0.10, 0.27 (mean 0.24).

Variant G61I+S63D+R100N showed ND, -0.49, -0.09, -0.38, 0.90, 1.30 (mean 0.25). For S31E+G61T+A101L, the assay gave 0.64, 1.04, -0.01, 0.00, 0.66, 0.13 (mean 0.41). For G61S+R100Y, the assay gave 0.41, 0.70, 0.54, 0.32, 0.03, 0.48 (mean 0.41). With R56Q+G61S+R100Q+A101T the result was 0.98, -0.11, 0.20, 0.33, 0.26, 0.90 (mean 0.43). Variant S31E+R100K+S107E showed 0.32, 1.00, -0.17, 0.63, 0.81, 0.03 (mean 0.44).

For R56K+G61A+A101T, the assay gave 0.66, 0.53, 0.22, 0.43, 0.54, 0.44 (mean 0.47). For G26E+T28D+A101T, the assay gave 1.33, 0.03, 0.86, 0.21, 0.29, 0.37 (mean 0.52). Variant T28Q+S31E+S63Q+R100K gave 0.36, 0.69, 0.80, 0.63, 0.34, 0.76 (mean 0.60). Variant T28S+S63Q+R100W+A101T showed 0.16, 0.39, 0.80, 0.99, 0.38, 1.02 (mean 0.63). For T28E+G61H+R100K+A101T, the assay gave 1.19, -0.19, -0.30, 1.33, 0.88, 1.04 (mean 0.66).

Variant S53A+A101N+S107Y gave 0.60, 0.41, 0.70, 0.65, 0.63, 1.00 (mean 0.67). For S53A+R56L+A101E, the assay gave 0.82, 0.74, ND, ND, ND, ND (mean 0.78). Variant R56L+G61A+R100Q showed 0.85, 0.74, ND, 0.30, 1.74, ND (mean 0.91). With T28H+G61D+R100L+A101L the result was ND, ND, ND, 1.26, ND, ND. Variant T28H+S31D+F59W+G61I showed ND, ND, ND, ND, 0.90, 1.70 (mean 1.30).

For G61Q+R100L+A101L, the assay gave ND, 1.00, 1.71, 1.60, 1.18, 1.05 (mean 1.31). Variant G61A+S63R+R100K+A101V+S107T gave ND, 1.24, ND, 1.56, 1.90, 1.78 (mean 1.62). Variant T28H+G61Q+R100W+A101T gave 1.56, 0.92, 0.91, ND, 2.66, 2.58 (mean 1.73). Variant T28C+S31D+G61A+S107K gave ND, 2.26, 1.97, 1.12, 2.29, ND (mean 1.91). For T28D+R56K+A101T+S107A, the assay gave 1.41, 1.95, ND, 2.19, ND, 2.46 (mean 2.00).

With F27A+S31D+I34N+G103S+D106I the result was ND, ND, ND, ND, ND, 2.24. For T28N+S63K+A101Q, the assay gave ND, ND, 1.90, 4.34, ND, 1.39 (mean 2.54). With G26S+T28E+G61I+R100Q+A101T the result was 3.15, 2.83, ND, 2.83, 2.09, 3.23 (mean 2.83). Variant N30Y+S53F+G61C+A102R gave ND, ND, 3.12, ND, ND, ND. Variant S31M+G61L+S63Q gave ND, ND, ND, ND, ND, ND.

With N30L+G61S+R100Q the result was ND, ND, ND, ND, ND, ND. With R56K+G61I+D106W the result was ND, ND, ND, ND, ND, ND. For T28S+S63Q+R100I+A101T, the assay gave ND, ND, ND, ND, ND, ND. Variant T28Q+S31D+A101H+D106I showed ND, ND, ND, ND, ND, ND. With T28D+R56N+T104W+D106N the result was ND, ND, ND, ND, ND, ND.

With F27N+S31Q+A102P+D106R the result was ND, ND, ND, ND, ND, ND. For T28Q+S31E+A101H+D106I, the assay gave ND, ND, ND, ND, ND, ND. For I34V+K65R+R100Q+A101S+S107D, the assay gave ND, ND, ND, ND, ND, ND. Variant G61D+S63V+R100Q+A101L gave ND, ND, ND, ND, ND, ND. For R56V+T58E, the assay gave ND, ND, ND, ND, ND, ND.

For R56Y+R100E+A101I+F105K, the assay gave ND, ND, ND, ND, ND, ND. For S31E+A101E+G103S, the assay gave ND, ND, ND, ND, ND, ND. For S31D+G61R, the assay gave ND, ND, ND, ND, ND, ND. Variant T28S+G61V+R100K+S107Q gave ND, ND, ND, ND, ND, ND. With G61Y+K65R the result was ND, ND, ND, ND, ND, ND.

Excerpt, the final 3 entries:

{"changes": "S31D+G61R", "log10 Kd, replicates": "ND, ND, ND, ND, ND, ND", "log10 Kd (nM), mean": "ND"}
{"changes": "T28S+G61V+R100K+S107Q", "log10 Kd, replicates": "ND, ND, ND, ND, ND, ND", "log10 Kd (nM), mean": "ND"}
{"changes": "G61Y+K65R", "log10 Kd, replicates": "ND, ND, ND, ND, ND, ND", "log10 Kd (nM), mean": "ND"}

The range of this assay differs from that of the first round, and the authors advise against merging the two.
The authors averaged sequences with at least three values out of six and counted those with two or fewer as poor binders.
Nonspecific signal, from three strains lacking the peptide, appeared in 1% of pairings of all heavy chain designs, centred on 2.08 (5% of these signals below 0.84); values are not corrected for it.
A sequence that the file lists under several names has all its replicates listed entry by entry, parted by semicolons.
The parent sequence was in this pool as ten entries: three were never detected, three once, and four in most replicates, with averages from 0.34 to 2.37.